## Apparent affinities of Ab-14 variants for a coronavirus HR2 peptide

All variants were tested on one target, the spike HR2 peptide PDVDLGDISGINAS (SARS-CoV-2).

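The starting antibody came from a phage panning campaign against this peptide. The variants were designed computationally from a first round of random CDR variants and then made and measured. Several design methods are mixed in this list. Affinity was read by AlphaSeq, a pooled yeast mating assay with surface-displayed partners. Binding brings cells together so that they mate, and sequencing counts the barcode pairs among the diploids. The ratio of observed to expected reads was calibrated, replicate by replicate, on BCL2-family standards whose Kd was known from biolayer interferometry. The assay was run in six technical replicates.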

Parent scFv Ab-14: VH joined to VL by the linker GGGGSGGGGSGGGGS. Changes lie in the light chain CDRs alone.
VH: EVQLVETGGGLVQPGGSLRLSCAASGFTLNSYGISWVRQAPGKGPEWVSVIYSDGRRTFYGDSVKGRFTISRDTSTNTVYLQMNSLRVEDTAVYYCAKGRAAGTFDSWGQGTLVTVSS
VL: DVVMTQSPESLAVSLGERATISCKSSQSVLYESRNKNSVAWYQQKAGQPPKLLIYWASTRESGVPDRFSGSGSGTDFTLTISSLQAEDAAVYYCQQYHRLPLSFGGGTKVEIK

Substitutions are numbered in sequence along the VL above, starting at 1 (not Kabat). This list holds designs with at most six substitutions. Numbers give log10(Kd / nM), so 0 is 1 nM and 3 is 1 µM. Smaller is tighter. "ND" marks a missing value. The strain was present, yet no cells mated with the target were sequenced in that replicate, which points to weak or no binding.

* S25L+V29W+W56N+E61C+S62D -> 0.11, -0.09, -0.03, -0.16, -0.25, 0.02 (controls 2 of 18)
* Y31G+N35G+K36A+W56Y -> 2.73, ND, 1.77, ND, 2.69, 2.31 (controls 1 of 18)
* S33A+R99T+L100M -> ND, ND, ND, ND, 2.34, ND (controls 0 of 18)
* S25L+S26P+V29D+W56E+S62V -> -0.06, -0.05, -0.22, -0.15, -0.10, -0.05 (controls 0 of 18)
* V29I+N35Q -> 1.53, 2.01, 3.88, 1.58, 3.64, 2.10 (controls 0 of 18)
* S25C+W56A -> 0.35, 0.29, -0.04, 0.24, 0.06, 0.36 (controls 1 of 18)
* Q96A+L100E -> ND, ND, ND, ND, ND, ND (controls 0 of 18)
* Q27A+V29Y+W56E+S103M -> 0.58, 0.21, 0.31, 0.59, 0.44, 0.83 (controls 2 of 18)
* Q27I+V29E+W56A -> 0.65, 0.31, 0.40, 0.35, 0.42, 0.40 (controls 2 of 18)
* S25M+S26E+S28G+W56N -> -0.15, -0.14, -0.16, -0.52, -0.29, -0.09 (controls 1 of 18)
* S25L+S26P+L30E+W56N -> -0.37, -0.22, -0.37, -0.43, -0.38, -0.36 (controls 1 of 18)
* Q27W+V29E+R34G+W56H+S62D -> 0.29, 0.10, 0.12, -0.08, 0.11, 0.18 (controls 1 of 18)
* S25V+Y31F+S38N+Q95T -> ND, ND, ND, ND, ND, ND (controls 0 of 18)
* Y31E+W56H+Q96T -> 0.86, 1.21, 0.59, 1.08, 0.93, 0.73 (controls 3 of 18)
* S25V+S28L+V29D+Y31G+W56H+E61L -> 0.54, 0.84, 0.61, 0.60, 0.67, 1.03 (controls 2 of 18)
* S26V+R34L+P101C -> ND, ND, ND, ND, ND, ND (controls 0 of 18)
* S25F+V29N+W56N -> -0.19, -0.35, -0.38, -0.37, -0.31, -0.28 (controls 0 of 18)
* K24A+S25L+V29Q+W56N -> 0.69, -0.17, 0.44, -0.16, 0.37, -0.15 (controls 2 of 18)
* S25V+V29E+W56N -> -0.23, -0.57, -0.46, -0.61, -0.72, -0.37 (controls 3 of 18)
* V29Y+R34G+W56H -> -0.02, 0.13, 0.20, 0.40, 0.01, 0.67 (controls 0 of 18)
* S25V+V29H+S38A+W56H -> -0.02, -0.14, -0.18, -0.18, -0.35, -0.16 (controls 4 of 18)
* K36D+Y97S -> ND, ND, ND, ND, ND, ND (controls 0 of 18)
* W56G+H98Y -> 0.03, -0.16, -0.18, -0.23, 0.18, 0.14 (controls 0 of 18)
* S62W+Q95E -> ND, ND, ND, ND, ND, ND (controls 0 of 18)
* S25L+S26R+V29T+W56A -> 0.44, 0.38, 0.32, 0.20, 0.34, 0.37 (controls 2 of 18)
* S25V+W56N+T59Y -> 0.13, 0.06, 0.09, -0.08, 0.15, 0.16 (controls 0 of 18)
* S25L+W56D+S58H -> -0.10, -0.18, -0.19, -0.20, -0.25, -0.16 (controls 0 of 18)
* S25L+V29H+W56N+T59Q -> 0.19, 0.10, 0.13, -0.10, 0.00, 0.16 (controls 1 of 18)
* S25V+V29W+S38N+W56D -> -0.32, -0.48, -0.37, -0.57, -0.61, -0.44 (controls 1 of 18)
* Y31D+S38A+V39I+W56S+Q96T -> 1.90, 0.97, 0.87, 0.54, 0.53, 0.55 (controls 0 of 18)
* S25L+V29W+W56H+T59Q -> 0.22, 0.09, 0.14, -0.03, -0.01, 0.24 (controls 1 of 18)
* S25V+Q27P+V29Q+W56N -> -0.16, -0.22, -0.62, -0.77, -0.17, -0.62 (controls 0 of 18)
* S25L+S26Q+W56N+S62E -> 0.66, 0.35, 0.33, 0.03, 0.28, -0.06 (controls 0 of 18)
* S25V+V29M+W56H -> 0.09, 0.24, -0.19, -0.29, -0.13, -0.14 (controls 0 of 18)
* S26L+S28D+V29W+W56H+S62Q -> ND, 4.19, ND, ND, ND, ND (controls 0 of 18)
* S25V+V29F+S38A+W56G+P101K -> ND, ND, ND, ND, ND, ND (controls 0 of 18)
* R34G+S103F -> 0.68, ND, ND, ND, ND, ND (controls 0 of 18)
* L30E+R34A+S62D -> 1.25, 1.36, 0.94, 0.90, 1.01, 1.33 (controls 1 of 18)
* S26G+S28G+V29D+W56G+T59L -> 0.55, 0.29, 0.03, 0.52, 0.19, 0.69 (controls 2 of 18)
* S25L+V29W+N35V+W56N+T59Q -> 0.37, 0.19, 0.32, -0.04, 0.28, 0.65 (controls 0 of 18)
* S25V+Q27P+V29Y+W56Q -> -0.13, -0.04, -0.20, -0.32, -0.03, 0.04 (controls 1 of 18)
* S25I+S26A+E61P -> 1.15, 1.36, 0.79, 1.08, 0.65, 1.14 (controls 0 of 18)
* K24W+L100K+S103M -> ND, ND, ND, ND, ND, ND (controls 0 of 18)
* R34N+W56H+E61N -> 0.86, 0.53, 1.26, 1.33, 1.11, 0.84 (controls 2 of 18)
* K24S+S25V+Q27P+V29T+W56N -> -0.22, -0.40, -0.47, -0.44, -0.46, -0.27 (controls 0 of 18)
* S25I+Q27I+V29Y+Y31G+S33K+W56E -> 0.65, 0.86, 0.48, 0.65, 0.54, 0.68 (controls 1 of 18)
* S25L+V29Q+S38N+W56H -> -0.18, -0.39, -0.45, -0.53, -0.44, -0.29 (controls 0 of 18)
* E32D+N35F+Q95D -> 1.42, ND, 1.83, ND, ND, ND (controls 0 of 18)

The 5 strongest on average among those seen in every replicate, once more:

changes,log10 Kd (nM) by replicate,signal with controls
S25V+V29E+W56N,"-0.23, -0.57, -0.46, -0.61, -0.72, -0.37",3 of 18
S25V+V29W+S38N+W56D,"-0.32, -0.48, -0.37, -0.57, -0.61, -0.44",1 of 18
S25V+Q27P+V29Q+W56N,"-0.16, -0.22, -0.62, -0.77, -0.17, -0.62",0 of 18
S25L+V29Q+S38N+W56H,"-0.18, -0.39, -0.45, -0.53, -0.44, -0.29",0 of 18
K24S+S25V+Q27P+V29T+W56N,"-0.22, -0.40, -0.47, -0.44, -0.46, -0.27",0 of 18

Of ten entries with the parent sequence, four were seen in most replicates (averages 0.34 to 2.37), three in one and three in none, so single entries are noisy. As a blank, each scFv also met three strains without target: over all light chain designs, 4% of these pairings were detected, typically at 2.64 and seldom below 1.59. The control count says in how many pairings with the empty strains this scFv gave a signal. A sequence measured in both rounds can read differently, since the two assays cover different ranges. The authors averaged sequences with at least three values out of six and counted those with two or fewer as poor binders.

From the AlphaSeq antibody data of Li et al. 2023 (doi:10.1038/s41467-023-39022-2), copy in the FLAb collection.